Literature values, collected in US20210077478A1, “METHOD OF COUNTERING RESPIRATORY DEPRESSION VIA ACTIVATION OF NEURONAL HETEROMERIC NICOTINIC ACETYLCHOLINE RECEPTORS” (THE GOVERNORS OF THE UNIVERSITY OF ALBERTA, priority 2017, published 2021).

Amino acid sequences for entries named in this document (tags omitted). Residues count along the entry.
UniProt P09483, 31-630: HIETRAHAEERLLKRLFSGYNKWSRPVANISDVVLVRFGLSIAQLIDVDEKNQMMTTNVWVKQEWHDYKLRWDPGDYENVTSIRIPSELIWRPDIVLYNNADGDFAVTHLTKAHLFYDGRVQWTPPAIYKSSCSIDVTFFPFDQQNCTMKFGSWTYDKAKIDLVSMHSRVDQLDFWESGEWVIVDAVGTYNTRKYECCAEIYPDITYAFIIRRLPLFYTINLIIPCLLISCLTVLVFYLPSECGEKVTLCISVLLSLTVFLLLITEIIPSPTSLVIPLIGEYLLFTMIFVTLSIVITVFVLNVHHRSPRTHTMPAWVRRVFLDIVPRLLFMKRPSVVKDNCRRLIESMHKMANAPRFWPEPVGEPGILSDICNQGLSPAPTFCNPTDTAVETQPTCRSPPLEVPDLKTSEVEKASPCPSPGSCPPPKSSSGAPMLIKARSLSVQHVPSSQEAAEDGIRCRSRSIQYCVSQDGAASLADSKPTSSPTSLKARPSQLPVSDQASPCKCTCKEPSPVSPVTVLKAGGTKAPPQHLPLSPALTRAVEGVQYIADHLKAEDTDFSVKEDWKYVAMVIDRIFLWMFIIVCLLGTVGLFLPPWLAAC
UniProt P12392, 21-495: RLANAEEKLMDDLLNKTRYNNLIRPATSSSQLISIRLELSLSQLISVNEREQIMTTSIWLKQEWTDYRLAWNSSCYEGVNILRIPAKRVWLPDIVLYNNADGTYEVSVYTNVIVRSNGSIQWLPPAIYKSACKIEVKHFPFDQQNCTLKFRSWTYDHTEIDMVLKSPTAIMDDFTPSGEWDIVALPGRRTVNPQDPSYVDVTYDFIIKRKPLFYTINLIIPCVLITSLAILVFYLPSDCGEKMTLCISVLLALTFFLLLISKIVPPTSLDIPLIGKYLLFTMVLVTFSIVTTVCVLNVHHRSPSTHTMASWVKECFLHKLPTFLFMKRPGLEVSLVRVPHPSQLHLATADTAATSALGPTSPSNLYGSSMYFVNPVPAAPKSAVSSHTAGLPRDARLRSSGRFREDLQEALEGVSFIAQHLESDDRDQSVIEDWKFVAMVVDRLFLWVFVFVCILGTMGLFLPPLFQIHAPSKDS
UniProt P12390, 25-500: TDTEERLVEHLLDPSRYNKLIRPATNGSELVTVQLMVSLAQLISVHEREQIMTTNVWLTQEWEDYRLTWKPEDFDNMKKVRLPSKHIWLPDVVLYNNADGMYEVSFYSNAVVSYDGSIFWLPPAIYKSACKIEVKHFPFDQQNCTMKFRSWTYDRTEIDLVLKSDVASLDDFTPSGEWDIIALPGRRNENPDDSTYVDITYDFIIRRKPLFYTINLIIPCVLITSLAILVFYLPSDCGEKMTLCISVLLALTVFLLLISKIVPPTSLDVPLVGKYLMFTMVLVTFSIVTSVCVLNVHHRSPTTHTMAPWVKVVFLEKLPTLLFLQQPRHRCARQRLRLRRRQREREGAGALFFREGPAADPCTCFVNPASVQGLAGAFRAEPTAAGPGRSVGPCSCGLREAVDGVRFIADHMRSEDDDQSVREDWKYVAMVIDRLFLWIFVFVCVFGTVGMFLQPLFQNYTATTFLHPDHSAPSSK

Tests used:
[1] = molecular target: α4β4 nAChRs (Rattus norvegicus, UniProt P09483+P12392); details: Harvey et al., 1996; read-out: IC50, block of activation; cited from earlier work
[2] = molecular target: α4β2 nAChRs (Rattus norvegicus, UniProt P09483+P12390); details: Harvey et al., 1996; read-out: IC50, block of activation; cited from earlier work

Substance: dihydro-beta-erythroidine [DHβE]
- IC50 [1]: 190 nM
- IC50 [2]: 370 nM
